This is one part of the list. Results filed as inconclusive are left out. Active and inactive are the calls of the source. The call rests on the fitted dose curve.

Chains of the proteins cited; added tags and fusions are not shown.
UniProt Q14974, whole entry: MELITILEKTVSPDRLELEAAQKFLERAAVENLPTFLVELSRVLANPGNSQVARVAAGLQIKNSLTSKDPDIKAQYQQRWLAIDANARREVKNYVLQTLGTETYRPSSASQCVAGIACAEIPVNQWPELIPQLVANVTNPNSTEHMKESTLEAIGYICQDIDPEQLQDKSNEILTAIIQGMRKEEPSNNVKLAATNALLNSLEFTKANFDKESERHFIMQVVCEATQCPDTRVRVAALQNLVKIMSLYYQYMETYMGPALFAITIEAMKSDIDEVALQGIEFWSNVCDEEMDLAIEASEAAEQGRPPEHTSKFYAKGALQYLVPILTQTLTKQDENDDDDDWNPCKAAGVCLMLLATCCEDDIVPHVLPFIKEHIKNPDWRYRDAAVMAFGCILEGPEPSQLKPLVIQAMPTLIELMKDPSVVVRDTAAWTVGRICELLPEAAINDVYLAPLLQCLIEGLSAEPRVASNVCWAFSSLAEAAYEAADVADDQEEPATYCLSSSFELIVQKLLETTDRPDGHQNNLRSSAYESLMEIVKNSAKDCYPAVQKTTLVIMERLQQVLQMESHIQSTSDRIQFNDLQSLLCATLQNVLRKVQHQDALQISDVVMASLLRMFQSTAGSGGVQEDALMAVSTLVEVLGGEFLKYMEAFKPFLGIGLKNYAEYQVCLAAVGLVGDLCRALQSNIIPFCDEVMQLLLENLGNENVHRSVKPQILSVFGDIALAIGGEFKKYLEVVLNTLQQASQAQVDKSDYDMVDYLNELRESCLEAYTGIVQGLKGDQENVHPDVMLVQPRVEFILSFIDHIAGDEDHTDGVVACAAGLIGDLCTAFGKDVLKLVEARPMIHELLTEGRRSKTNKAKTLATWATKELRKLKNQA
UniProt O95149, whole entry partner: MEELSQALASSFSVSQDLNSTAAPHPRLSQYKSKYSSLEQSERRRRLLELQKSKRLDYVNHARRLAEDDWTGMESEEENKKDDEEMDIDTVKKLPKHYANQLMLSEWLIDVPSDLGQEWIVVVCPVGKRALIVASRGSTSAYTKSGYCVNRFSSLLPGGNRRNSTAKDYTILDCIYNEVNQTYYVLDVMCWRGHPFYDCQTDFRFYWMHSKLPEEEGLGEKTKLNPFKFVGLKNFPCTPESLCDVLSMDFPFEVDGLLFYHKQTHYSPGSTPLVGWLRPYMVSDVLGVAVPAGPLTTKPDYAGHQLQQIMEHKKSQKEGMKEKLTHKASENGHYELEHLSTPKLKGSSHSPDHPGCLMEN

For the experiment, the target named is Importin subunit beta-1 (Homo sapiens) (UniProt Q14974). Description: qHTS Assay for Inhibitors of Rango (Ran-regulated importin-beta cargo) - Importin beta complex formation.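 Further: 0% = DMSO wells and 100% = buffer wells lacking importin beta; nearly all actives have a fitted effect of over 15% in size.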 Conditions: Rango CFP/YFP FRET sensor + importin beta, 45 min; at 92.2 µM (top of the series). The text has this:
NIH Molecular Libraries Probe Production Centers Network [MLPCN] NIH Chemical Genomics Center [NCGC] MLPCN Grant: R03 MH090808-01A1 Assay Submitter (PI): Petr Kalab NCGC Assay Overview: The small GTPase Ran regulates transport of macromolecules between the nucleus and the cytoplasm (nuclear transport) and has important functions in mitotic spindle assembly, nuclear envelope (NE) formation and nuclear pore complex (NPC) assembly. RanGTP gradient is thought to promote spindle assembly by providing a spatial clue to microtubule nucleation and Aurora A activation. Because the localized release and binding of importin alpha cargo relays this spatial clue to SAFs, inhibitors of the Rango - importin beta complex can then be used in further understanding their role in cell cycle specifically in mitosis progression. […] Activation of Aurora A has been linked to different types of cancer and a number of Aurora kinase inhibitors are being developed as potential canter therapeutics therefore, identified inhibitors of this complex could be developed into potential anti-mitotic probes for cancer treatment. Purified recombinant proteins Rango and importin beta were provided by the assay submitter. The assay used a fluorescence resonance energy transfer (FRET) Rango biosensor that contains the IBB of human snurportin 1 flanked by yellow fluorescent protein (EYFP) at the amino terminus and cerulean CFP10 at the carboxy terminus. […] Inhibitors will therefore be identified based on the ability to interfere with the FRET signal decrease. DMSO treated and no importin beta (buffer only) wells were used as negative and positive controls respectively. FRET readings were obtained at two time points. FRET reading prior to importin beta addition (pre-read) were used flag potential compound interference; FRET reading after importin beta addition (post-read) were used to identify inhibitors using the FRET ratio parameter.
NCGC Assay Protocol Summary: Two and a half uL/well of Rango-buffer solution (50 nM Rango, 1x PBS, 1mM DTT, 0.02% Tween-20, 0.1% BSA final concentrations) was dispensed into 1536-well assay plates (Greiner, solid black medium-binding plates) with Aurora Discovery BioRAPTR Flying Reagent Dispenser (FRD; Beckton-Dickenson). Compound solution (23 nL) was transferred to the assay plate using Kalypsys pin tool equipped with a 1536-pin tool and incubated at room temperature for 5 min followed by a FRET pre-read using the PerkinElmer Envision plate reader. Two and a half uL/well of Importin beta - buffer solution (0.125 microM importin beta, 1x PBS, 1mM DTT, 0.02% Tween-20, 0.1% BSA final concentrations) were then added and incubated at room temperature giving a final reaction volume of 5uL. After 45min FRET post-read was obtained via the Envision plate reader using the same optics and settings as the pre-read (CFP/YFP optimized dual optical module D450/D505; excitation mirror CFP 430/24 nm; and emission filters CFP 486/10 nm and YFP 530/10 nm).
Consider `CP(=O)(Oc1ccccc1)N1CCOC1=O` (stereo not given), for which the inhibition of complex formation is inactive: -1.85%.

In the case of `Cc1ccc(NP(=O)(Oc2ccccc2)Oc2ccccc2)nc1`, the inhibition of complex formation is inactive: -0.585%.

For the molecule `CCc1ccc(OP(C)(=O)Nc2cccnc2)cc1` (stereo not given), the inhibition of complex formation was inactive: 5.5%.

In the case of `O=[N+]([O-])c1cc([N+](=O)[O-])c(CCNc2ccccc2)c([N+](=O)[O-])c1`, the inhibition of complex formation was inactive: -0.207%.

For the molecule `CCc1nc2c(n1)c1c(non1O)c1c2no[n+]1[O-]`, the inhibition of complex formation was inactive: 0.0141%.

As for `Nc1cc(N)c2nonc2c1[N+](=O)[O-]`, the inhibition of complex formation was inactive: -0.339%.

In the case of `Cc1c(NP(C)(=O)Oc2ccc(C(C)C)cc2)c(=O)n(-c2ccccc2)n1C` (stereo not given), the inhibition of complex formation is inactive: -6.89%.

For `O=[N+]([O-])c1cc([N+](=O)[O-])c(Nc2ccccn2)c([N+](=O)[O-])c1`, the inhibition of complex formation is inactive: 7.52%.

In the case of `CC(C)CC(=O)NC(Sc1ccc(Cl)cc1)C(Cl)(Cl)Cl` (stereo not given), the inhibition of complex formation is inactive: 0.241%.

Turning to `Oc1ccccc1CNc1ccccn1`, the inhibition of complex formation was inactive: 2.99%.

With `O=C(NC(Sc1ccncn1)C(Cl)(Cl)Cl)c1ccccc1` (stereo not given), the inhibition of complex formation is inactive: -0.403%.

For the molecule `CP(=O)(Nc1ccccn1)Oc1ccccc1` (stereo not given), the inhibition of complex formation was inactive: 5.1%.

For `COc1ccccc1OP(C)(=O)Nc1ccc(C)cc1C` (stereo not given), the inhibition of complex formation is inactive: 0.126%.

On to `CCc1ccc(OP(C)(=O)O)cc1`, for which the inhibition of complex formation was inactive: 2.21%.

With `NC(=O)c1cc([N+](=O)[O-])cc([N+](=O)[O-])c1N`, the inhibition of complex formation is inactive: 4.02%.

For the molecule `CN(C(=O)Cc1ccc(Cl)c(Cl)c1)[C@H]1CCCC[C@H]1N1CCCC1`, the inhibition of complex formation was inactive: 0.921%.

`COc1ccccc1OP(C)(=O)Nc1ccc(Br)cc1` (stereo not given): the inhibition of complex formation was inactive: 2.48%.

Regarding `Cc1ccc(N/C(=N/P(=O)(N2CCOCC2)N2CCOCC2)N2CCOCC2)cc1`, the inhibition of complex formation is inactive: -0.991%.

In the case of `COc1ccccc1OP(=O)(Nc1ccc(C)cn1)Oc1ccccc1OC`, the inhibition of complex formation is inactive: 2.15%.

As to `COc1ccc(OP(C)(=O)Nc2ccccn2)cc1` (stereo not given), the inhibition of complex formation was inactive: -2.32%.

Turning to `Cc1ccc(OP(=O)(Nc2nccs2)Oc2ccc(C)cc2)cc1`, the inhibition of complex formation is inactive: 3.81%.

Turning to `CN1CCCC(OC(=O)C(c2ccccc2)c2ccccc2)C1` (stereo not given), the inhibition of complex formation is inactive: -2.55%.

For the molecule `CN(C)CCOC(=O)C(O)(c1ccccc1)C1CCCC1` (stereo not given), the inhibition of complex formation was inactive: 1.32%.

Turning to `Clc1ccc(Cl)c(NC2=NCC(CBr)S2)c1` (stereo not given), the inhibition of complex formation was inactive: -1.02%.

As for `CCN(N=Nc1nonc1N)c1nonc1N`, the inhibition of complex formation is inactive: 1.54%.

Take `Nc1cccc2ccc([As](=O)(O)O)cc12`: the inhibition of complex formation was inactive: -1.48%.

Turning to `CCCCCCCCCCCCCCCC1C[N+](C)(C)CCOP(C)(=O)O1` (stereo not given), the inhibition of complex formation is inactive: 3.64%.

On to `CP(=O)(Nc1ccc(Cl)cc1Cl)Oc1ccccc1` (stereo not given), for which the inhibition of complex formation is inactive: -0.0983%.

Take `CP(=O)(OCCOc1ccccc1)OCCOc1ccccc1`: the inhibition of complex formation is inactive: 3.71%.

In the case of `CC(=O)Nc1ccc([As](=O)(O)O)cc1`, the inhibition of complex formation was inactive: 3.51%.

As for `O=C(O)c1ccccc1[As](=O)(O)O`, the inhibition of complex formation was inactive: 2.27%.

Take `CCCC1OP(N)(=O)OCC1CC` (stereo not given): the inhibition of complex formation was inactive: -0.903%.

Consider `O=P(Nc1nc2ccc(Cl)cc2s1)(c1ccccc1)c1ccccc1`, for which the inhibition of complex formation was inactive: -2.65%.

In the case of `Cc1cc(C)cc(OP(C)(=O)Nc2cccc(C(F)(F)F)c2)c1` (stereo not given), the inhibition of complex formation was inactive: 2.12%.

With `Cc1cc(SC(NC(=O)c2ccc(F)cc2)C(Cl)(Cl)Cl)ncn1` (stereo not given), the inhibition of complex formation is inactive: -1.87%.

With `CCOP(=O)(Nc1ccccc1)OCC`, the inhibition of complex formation was inactive: -0.436%.

In the case of `COc1ccccc1OP(C)(=O)Nc1ccc(C)c(C)c1` (stereo not given), the inhibition of complex formation is inactive: -0.172%.

Turning to `CN(C(=O)Cc1ccc(Cl)c(Cl)c1)[C@H]1CCCC[C@@H]1N1CCCC1`, the inhibition of complex formation was inactive: 1.33%.

Take `Cc1ccc(NP(=O)(Oc2ccccc2F)Oc2ccccc2F)nc1`: the inhibition of complex formation is inactive: 1.04%.

For `COc1ccc(OP(C)(=O)Nc2ccccc2Br)cc1` (stereo not given), the inhibition of complex formation is inactive: 5.77%.

For the molecule `COC(=O)c1cc2c(s1)N=C(c1ccccc1)N(C)P2(=O)N1CCOCC1` (stereo not given), the inhibition of complex formation was inactive: -0.546%.

For the molecule `Cc1c([N+](=O)[O-])cc([N+](=O)[O-])c(Br)c1[N+](=O)[O-]`, the inhibition of complex formation was inactive: -0.376%.

For `Cc1ccc(OP(=O)(Nc2ccccn2)Oc2ccc(C)cc2)cc1`, the inhibition of complex formation was inactive: -2.61%.

For the molecule `CC(=O)NC(SC(=S)N(CC(C)C)CC(C)C)C(Cl)(Cl)Cl` (stereo not given), the inhibition of complex formation was inactive: 3.43%.

`O=C(OC1CN2CCC1CC2)c1ccccc1` (stereo not given): the inhibition of complex formation was inactive: 4.68%.

For `CCC(=O)N1C2C3N(C(=O)CC)C1C1N(C(=O)CC)C(C(N1C(=O)CC)N3C(=O)CC)N2C(=O)CC`, the inhibition of complex formation is inactive: 0.193%.

For `CCN(CC)CCCOC(=O)C(O)(c1ccccc1)C1CCCCC1` (stereo not given), the inhibition of complex formation is inactive: 2.56%.

For `CP(=O)(Nc1ccccc1)Oc1ccc(F)cc1` (stereo not given), the inhibition of complex formation was inactive: 0.117%.

For `CC(NC(=O)COC(=O)C(O)(c1ccccc1)c1ccccc1)c1ccccc1` (stereo not given), the inhibition of complex formation was inactive: 3.42%.

With `Cc1ccccc1OP(=O)(Nc1ccccn1)Oc1ccccc1C`, the inhibition of complex formation was inactive: -1.18%.

Values taken from PubChem BioAssay AID540263 (National Center for Advancing Translational Sciences (NCATS), 2011).
